In ChEMBL document CHEMBL1165890, “Inside HDAC with HDAC inhibitors” (Eur J Med Chem, 2010):

Target: T1, Protein deacetylase HDAC6 (Homo sapiens, UniProt Q9UBN7)
T1 sequence (Q9UBN7 whole entry): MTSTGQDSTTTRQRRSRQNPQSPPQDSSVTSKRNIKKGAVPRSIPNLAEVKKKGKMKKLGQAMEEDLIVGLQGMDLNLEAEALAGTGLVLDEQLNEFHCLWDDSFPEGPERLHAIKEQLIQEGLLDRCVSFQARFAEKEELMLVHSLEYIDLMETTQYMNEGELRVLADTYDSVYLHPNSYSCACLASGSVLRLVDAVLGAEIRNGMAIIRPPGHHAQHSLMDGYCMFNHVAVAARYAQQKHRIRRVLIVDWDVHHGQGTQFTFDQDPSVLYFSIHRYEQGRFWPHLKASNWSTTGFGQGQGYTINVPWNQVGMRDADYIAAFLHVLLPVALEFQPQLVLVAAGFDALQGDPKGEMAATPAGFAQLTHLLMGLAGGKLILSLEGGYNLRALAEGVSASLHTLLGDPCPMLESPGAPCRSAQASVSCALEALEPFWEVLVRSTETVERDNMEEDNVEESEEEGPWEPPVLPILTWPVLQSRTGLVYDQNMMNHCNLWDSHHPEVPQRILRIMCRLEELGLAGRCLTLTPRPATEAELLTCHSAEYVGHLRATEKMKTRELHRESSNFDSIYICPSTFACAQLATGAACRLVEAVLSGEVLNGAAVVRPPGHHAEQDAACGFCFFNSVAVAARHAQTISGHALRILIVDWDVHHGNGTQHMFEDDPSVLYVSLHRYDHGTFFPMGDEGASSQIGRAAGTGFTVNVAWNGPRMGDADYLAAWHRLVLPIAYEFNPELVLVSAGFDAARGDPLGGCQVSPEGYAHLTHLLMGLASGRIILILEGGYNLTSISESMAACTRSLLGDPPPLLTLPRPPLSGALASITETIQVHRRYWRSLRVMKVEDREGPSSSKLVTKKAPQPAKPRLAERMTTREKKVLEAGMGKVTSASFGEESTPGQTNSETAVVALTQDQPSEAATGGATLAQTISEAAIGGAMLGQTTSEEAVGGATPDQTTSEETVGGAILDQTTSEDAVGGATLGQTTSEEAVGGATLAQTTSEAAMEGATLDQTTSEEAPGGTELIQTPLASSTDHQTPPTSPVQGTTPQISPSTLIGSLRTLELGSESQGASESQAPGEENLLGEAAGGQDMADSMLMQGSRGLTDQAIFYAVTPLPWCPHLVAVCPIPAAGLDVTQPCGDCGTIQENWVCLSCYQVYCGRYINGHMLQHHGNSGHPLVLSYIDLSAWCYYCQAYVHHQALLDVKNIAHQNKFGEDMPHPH
Experiment: Inhibition of recombinant HDAC6

- IC50: > 20 µM
Compound: CC(=O)Nc1ccc(C(=O)Nc2cc(-c3cccs3)ccc2N)cc1
